scFv variants of Ab-91 (heavy chain) against a SARS-CoV-2 spike peptide

Values reported by Engelhart et al. 2022, doi:10.1038/s41597-022-01779-4 (FLAb copy).

Antigen: PDVDLGDISGINAS, a 14-residue peptide of the SARS-CoV-2 spike HR2 region.

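The parent was found by panning a naive human phage display library on the peptide. In library AAYL51, one, two or three CDR residues were substituted; doubles and triples were drawn at random. AlphaSeq pools MATa yeast showing the antibodies with MATalpha yeast showing the peptide. Mating (16 h, 30 °C) was followed by selection of diploids and sequencing of their barcodes. A regression on co-assayed BCL2-family reference pairs converts the normalised counts of each replicate to an apparent Kd. Each pool was mated in three replicate cultures.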

Ab-91 is the parent antibody, in scFv form: VL, then a 15-residue (Gly4Ser)3 linker, then VH. The light chain is unchanged in all variants.
VL: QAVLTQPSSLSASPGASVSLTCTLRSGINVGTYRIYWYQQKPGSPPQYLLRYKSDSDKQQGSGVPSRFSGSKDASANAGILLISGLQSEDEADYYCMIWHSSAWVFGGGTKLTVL
VH: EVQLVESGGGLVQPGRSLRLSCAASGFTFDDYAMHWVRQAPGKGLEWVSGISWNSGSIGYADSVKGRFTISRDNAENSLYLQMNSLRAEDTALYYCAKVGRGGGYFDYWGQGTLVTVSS

Substitutions are numbered in sequence along the VH above, starting at 1 (not Kabat).
Every variant below is changed at H35 of the VH (sequential numbering).
The Kd shown is the geometric mean over detected replicates; a lower Kd is a better binder.
Where no diploid with the target was found in any replicate, the entry reads "not detected": below detection, most likely a poor binder, though not proof of it.
Nonspecific signal, from three strains lacking the peptide, appeared in 21% of pairings of library AAYL51, centred on 34 µM (5% of these signals below 1.8 µM); values are not corrected for it. Also given: how often the same scFv was detected with the empty control strains.

| changes | apparent Kd | seen in | empty controls |
|---|---|---|---|
| D31E H35Y S52W | not detected | 0/3 | 0/9 |
| H35R A61R G104D | 260 µM | 2/3 | 6/9 |
| F29C H35R S55R | not detected | 0/3 | 0/9 |
| F27E H35N V64T | 86 µM | 1/3 | 2/9 |
| M34Q H35C N54C | 380 µM | 2/3 | 1/9 |
| H35M F106C Y108W | 120 µM | 2/3 | 4/9 |
| H35T G50M Y108D | 340 nM | 1/3 | 0/9 |
| H35G S55M G102M | not detected | 0/3 | 1/9 |
| H35D A61R F106I | not detected | 0/3 | 1/9 |
| H35P I51K R101F | not detected | 0/3 | 0/9 |
| T28V H35S K65L | 92 µM | 1/3 | 2/9 |
| H35Q W53A V64D | not detected | 0/3 | 1/9 |
| H35C A61C | not detected | 0/3 | 0/9 |
| H35K D62L R101M | not detected | 0/3 | 3/9 |
| H35A S57T S63F | 21 µM | 1/3 | 2/9 |
| H35K S52Y V99S | 57 µM | 3/3 | 4/9 |
| F29M H35K S52N | 1.0 mM | 1/3 | 2/9 |
| H35T Y60H G100V | 21 µM | 1/3 | 0/9 |
| H35W V64C V99T | 19 µM | 1/3 | 1/9 |
| H35F Y60R Y108R | 22 µM | 2/3 | 3/9 |
| H35A S52K V64Q | not detected | 0/3 | 3/9 |
| F27D H35F D107E | 450 nM | 3/3 | 1/9 |
| H35F G59M Y108S | 71 µM | 2/3 | 2/9 |
| H35E D62F Y108I | not detected | 0/3 | 0/9 |
| H35L I58N Y105Q | not detected | 0/3 | 0/9 |
| H35Y S52G G103V | not detected | 0/3 | 0/9 |
| H35M K65E G100K | 69 µM | 2/3 | 0/9 |
| M34P H35L | not detected | 0/3 | 0/9 |
| D31Q H35S N54I | not detected | 0/3 | 0/9 |
| A33F H35R K65C | not detected | 0/3 | 0/9 |
| T28M H35Q V99H | 41 µM | 2/3 | 5/9 |
| H35A I51P | 340 µM | 2/3 | 3/9 |
| F27W H35V V64H | 7.3 µM | 1/3 | 0/9 |
| H35T R101E | 410 nM | 1/3 | 0/9 |
| H35F G50I S57G | 25 µM | 2/3 | 0/9 |
| G26T H35E G59S | not detected | 0/3 | 0/9 |
| Y32M H35S A61N | 28 µM | 2/3 | 2/9 |
| F27M H35W G50P | 9.6 µM | 1/3 | 2/9 |
| H35Y F106C | 58 µM | 3/3 | 7/9 |
| H35C I51Q S63T | not detected | 0/3 | 4/9 |
| G26C H35D G104K | not detected | 0/3 | 0/9 |
| H35F G56Y G103R | 74 nM | 3/3 | 4/9 |
| H35A V64F F106W | not detected | 0/3 | 3/9 |
| H35T G102Q G103I | 13 µM | 1/3 | 3/9 |
| T28V H35A R101H | 2.0 µM | 1/3 | 2/9 |
| H35R S52P S55P | 33 µM | 1/3 | 5/9 |
| Y32A H35P | 41 µM | 3/3 | 5/9 |
| H35C D107I | 13 µM | 1/3 | 0/9 |
| H35Y S55C V99M | not detected | 0/3 | 0/9 |
| H35P I58N G104V | not detected | 0/3 | 0/9 |
| H35R S55D S63Y | 100 µM | 2/3 | 5/9 |
| F27G H35A G100V | not detected | 0/3 | 1/9 |

Extract of 9 entries:

| changes | apparent Kd | seen in | empty controls |
|---|---|---|---|
| F27W H35V V64H | 7.3 µM | 1/3 | 0/9 |
| A33F H35R K65C | not detected | 0/3 | 0/9 |
| F29C H35R S55R | not detected | 0/3 | 0/9 |
| T28M H35Q V99H | 41 µM | 2/3 | 5/9 |
| D31E H35Y S52W | not detected | 0/3 | 0/9 |
| F27E H35N V64T | 86 µM | 1/3 | 2/9 |
| M34Q H35C N54C | 380 µM | 2/3 | 1/9 |
| H35R S55D S63Y | 100 µM | 2/3 | 5/9 |
| M34P H35L | not detected | 0/3 | 0/9 |

In this assay the parent's reference entry averaged 72 nM; its copy inside this library read 7.5 nM.